scFv variants of Ab-14 (heavy chain) against a SARS-CoV-2 spike peptide

All variants were tested on one target, the spike HR2 peptide PDVDLGDISGINAS (SARS-CoV-2).

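The parent was found by panning a naive human phage display library on the peptide. The variants were designed computationally from a first round of random CDR variants and then made and measured. Their group label is 14H_En_Gibbs (En: ensemble of fine-tuned language models; Gibbs: Gibbs sampling). The assay is AlphaSeq: two haploid yeast populations carry antibody and antigen on their surface. Mating (16 h, 30 °C) was followed by selection of diploids and sequencing of their barcodes. Scores were corrected for input abundance and mapped to Kd with protein pairs of known affinity run in the same pool. Each pool was mated in six replicate cultures.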

The variants keep the light chain, the linker and the frameworks of Ab-14 (scFv order VH, a 15-residue (Gly4Ser)3 linker, VL).
VH: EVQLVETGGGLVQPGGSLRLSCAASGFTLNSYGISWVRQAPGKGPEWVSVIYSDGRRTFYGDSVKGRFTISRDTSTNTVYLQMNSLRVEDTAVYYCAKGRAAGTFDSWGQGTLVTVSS
VL: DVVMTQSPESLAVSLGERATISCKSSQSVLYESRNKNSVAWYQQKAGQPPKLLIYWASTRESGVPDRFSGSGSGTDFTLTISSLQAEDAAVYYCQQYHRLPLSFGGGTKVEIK

The parent's heavy chain CDRs are GFTLNSYGIS, VIYSDGRRTFYGDSVK, GRAAGTFDS; each variant's own CDRs replace them letter for letter.
Values are log10 of the apparent Kd in nM; lower means stronger binding.
"ND" marks a missing value. The strain was present, yet no cells mated with the target were sequenced in that replicate, which points to weak or no binding.
Of ten entries with the parent sequence, four were seen in most replicates (averages 0.34 to 2.37), three in one and three in none, so single entries are noisy.
Values of this round are not directly comparable with the first-round values of the same sequences.
As a blank, each scFv also met three strains without target: over all heavy chain designs, 1% of these pairings were detected, typically at 2.08 and seldom below 0.84. The control count says in how many pairings with the empty strains this scFv gave a signal, with their mean in brackets.
The authors averaged sequences with at least three values out of six and counted those with two or fewer as poor binders.

CDR-H1 | CDR-H2 | CDR-H3 | replicates, log10 nM | signal with controls
GFDLEEYGIS | VIYADGRRVAYSDRVK | GIDVYGKVM | ND ND ND ND ND ND | 0 of 18
GFGIGEYGIS | VIYADGRRTFYSDDVK | GNMIVTFVD | ND ND ND ND ND ND | 0 of 18
GMNLDEYGIS | VIYADGFRSHYAEKVK | GQQGGFFIK | ND ND ND ND ND ND | 0 of 18
GKNIEEYGVS | VIYADGKRTAYANNFK | GSNAGSFVS | ND ND ND ND ND ND | 0 of 18
GFKLDEYGIS | VIYADGKRTAYADHVK | GGGTTDRGI | ND ND ND ND ND ND | 0 of 18
GFDLTEYGIS | VIYADGKRSMYTNDVK | GELGLGFVI | ND ND ND ND ND ND | 1 of 18 (2.57)
GFPLEEYGIS | VIYADGKRTFYIDAVK | GTWGVFGLG | ND 3.20 ND ND ND ND | 0 of 18
GFDLDEYGIS | VIYADGMRTAYQQKVK | GQETDTNVT | ND ND ND ND ND ND | 0 of 18
GKDIEEYGIS | VIYADGVRAAYADSVK | GENMDIMTD | ND ND ND ND ND ND | 1 of 18 (1.77)
GFNIQDYGIS | VIYADGKRTAYAEPVK | GNIGGTIDT | 1.15 1.43 0.28 0.65 0.65 0.69 | 0 of 18
GFDLDEQGIS | VIYADGVRCSYKDKVK | GAGSGVIDM | ND ND ND ND ND ND | 0 of 18
GFVLQEYGIS | VIYADGMRTAYAEDFK | GFTGGNLHI | ND ND ND ND ND ND | 0 of 18
GFDLEEYGIS | VIYADGQREAYTENVK | GNSMGMDVL | ND ND ND ND ND ND | 0 of 18
GEVLDEYGIS | VIYADGQRVQYSDNVK | GLLSGVFDM | ND ND ND ND 2.85 ND | 0 of 18
GMDLKEYGIS | VIYADGKRSYYVQDVK | GTNVGQGTF | ND ND ND ND ND ND | 0 of 18
GESLKEYGIS | VIYADGMRNAYVSKVK | GEVSGDFTI | ND ND ND ND ND ND | 0 of 18
GFGLNEYGIS | VIYADGQRKFYADNVK | GVFGEDGQV | ND ND ND ND ND ND | 0 of 18
GQDINEYGIS | VIYADGLRKAYSQQVK | GQNLGDVKV | ND ND 2.20 ND ND ND | 1 of 18 (1.80)
GFNLNEYGIS | VIYADGRRRAYADSVK | NQNMSGMVT | ND ND ND ND ND 2.51 | 0 of 18
GDDLEEYGIS | VIYADGMRTYYSDSVK | GNVNGTFFD | ND ND ND ND ND ND | 0 of 18
GFDLGEYGIS | VIYADGKRTACKTNVK | GTFAGTLLV | ND ND ND ND ND ND | 0 of 18
GFQLEEYGIS | VIYADGSRTAYQDSVK | GKYKFSLIV | ND ND ND ND ND ND | 0 of 18
GKQLEEMGIS | VIYADGVRTAYSSKVK | GINGDFFDV | ND ND ND ND ND 1.68 | 1 of 18 (2.49)
GFNLSEYGIS | VIYADGNRTFYAPNVK | GQFNDVLNM | ND ND ND ND ND ND | 0 of 18
GDKLEDYGIS | VIYADGRRSYYVDNVK | GEYAGYFDV | ND ND ND ND 2.53 ND | 3 of 18 (2.33)
GFNLDEYGIS | VIYADGRRTAYKDTVK | GSRTFEFDL | ND ND ND ND ND ND | 0 of 18
GQDLESYGIS | VIYADGRRKAYHDSVK | GTNGGVSFV | ND ND ND ND ND ND | 0 of 18
GDSLAEYGIS | VIYADGERSAYKDSFK | GWVAGYFDV | ND ND ND ND ND ND | 0 of 18
GFNINEYGIS | VIYADGIRTHYVDDVK | GKHTGGKMD | ND ND ND ND ND ND | 0 of 18
GFDLNEFGIS | VIYADGSRASYADKVK | GLNGGQLIV | ND ND ND ND ND ND | 0 of 18
GFEIQDYGIS | VIYADGLRTSYSNKFK | GIIAGTFES | ND ND ND ND ND ND | 0 of 18
GFDLDEMGIS | VIYADGVRTAYIDQVK | GMGGTFMNV | ND 0.37 ND ND ND ND | 0 of 18
GADLNEYGIS | VIYADGRSVYYANSFK | GHVAGTFDS | ND ND 1.36 1.61 ND 2.88 | 0 of 18
GKDLEEYGIS | VIYADGFRTAYKNQVK | GSGVIDIMV | ND ND ND ND ND ND | 0 of 18
GFDLMEYGIS | VIYADGVRTAYLDQVK | GEEGGALYT | ND 2.21 ND ND ND ND | 1 of 18 (3.16)
GFDINEYGIS | VIYADGQRVYYAEKVK | GFNQTINVL | ND ND ND ND 3.42 ND | 0 of 18
GQDLNEYGIS | VIYADGLRTAYLNNVK | GVNAGFDQY | 1.13 1.04 0.92 ND 3.41 2.25 | 1 of 18 (1.78)
GFDLEEYGIS | VIYADGMRVSYTNTVK | GQNSMISTT | ND ND ND ND ND ND | 0 of 18
GFDLGEYGIS | VIYADGHRTAYVTKVK | GTIGGMFFL | -0.01 -0.05 -0.11 0.33 0.34 0.24 | 0 of 18

Again, the first 3 entries without any signal:

CDR-H1,CDR-H2,CDR-H3,"replicates, log10 nM",signal with controls
GFDLEEYGIS,VIYADGRRVAYSDRVK,GIDVYGKVM,ND ND ND ND ND ND,0 of 18
GFGIGEYGIS,VIYADGRRTFYSDDVK,GNMIVTFVD,ND ND ND ND ND ND,0 of 18
GMNLDEYGIS,VIYADGFRSHYAEKVK,GQQGGFFIK,ND ND ND ND ND ND,0 of 18

Source: Li et al. 2023 (doi:10.1038/s41467-023-39022-2), MIT Lincoln Laboratory and A-Alpha Bio; data file from the FLAb repository.